What was measured:
[1] = molecular target: actin (5% Alexa488-labeled) (UniProt P68135); experiment: TIRF microscopy of single actin filaments (barbed end pause times); 1 µM actin (5% Alexa488-labeled), 2.5 µM talin construct with 5 µM V1ab4, 100 mM KCl, 5 mM Tris pH 7.8; exponential fit of the pause times
[2] = molecular target: actin (5% Alexa488-labeled) (UniProt P68135); experiment: TIRF microscopy of single actin filaments (barbed end pause times); 1 µM actin (5% Alexa488-labeled), 2.5 µM talin construct with 5 µM V1ab4, 25 mM KCl, 5 mM Tris pH 7.8; exponential fit of the pause times

koff [1] [s⁻¹]	t1/2 of barbed end pauses [1] [min]	koff [2] [s⁻¹]	t1/2 of barbed end pauses [2] [min]	Substance
0.006	1.93	0.0056	2.07	TΔ1ΔAI-V_(1ab4) complex, Q9Y490 1-2541; P18206-2 1-1066
–	–	0.007	1.66	TΔ1ΔAIΔABD2-V_(1ab4) complex, Q9Y490 1-2541; P18206-2 1-1066

Source: article PMC11532549
